The series relates to Liver microsome. In words: Drug metabolism in human liver microsomes assessed as intrinsic clearance per mg protein by multiple depletion curves method.

On to `O=C(O)Cc1ccccc1Nc1c(Cl)cccc1Cl` [DICLOFENAC], for which the CLH was 143 µL/min/g.

These data come from ChEMBL document CHEMBL3526124, “Optimized experimental design for the estimation of enzyme kinetic parameters: an experimental evaluation” (Drug Metab Dispos, 2012).
